From US9539284B2 (GLOBOASIA, LLC, priority 2006, dated 2017)

Assays:
[1] = Fe3+ content per 500 mg compound (selection criterion 3); assay type: physicochemical; details: unit mg
Excerpt: 3. Appropriate equivalence of ferric ion per gram of compound. The potential ferric compound should contain enough ferric ions to effectively bind with dietary phosphate.

[2] = cited from earlier work

Row | Substance | Fe^3+ content per 500 mg compound [1] | pKa of anionic group, pKa1 ([2]; first pKa) | pKa of anionic group, pKa2 ([2]; second pKa)
1 | ferric bicarbonate | 117 mg | – | –
2 | ferric succinate | 69 mg and 122 mg | pKa1 = 4.21 | pKa2 = 5.64

Where “and” joins values, the source holds several entries; their conditions need not be identical. Equal entries are not always repeated.
